The target in this experiment is T1, Interstitial collagenase (Homo sapiens, UniProt P03956).
T1 sequence (P03956 whole entry): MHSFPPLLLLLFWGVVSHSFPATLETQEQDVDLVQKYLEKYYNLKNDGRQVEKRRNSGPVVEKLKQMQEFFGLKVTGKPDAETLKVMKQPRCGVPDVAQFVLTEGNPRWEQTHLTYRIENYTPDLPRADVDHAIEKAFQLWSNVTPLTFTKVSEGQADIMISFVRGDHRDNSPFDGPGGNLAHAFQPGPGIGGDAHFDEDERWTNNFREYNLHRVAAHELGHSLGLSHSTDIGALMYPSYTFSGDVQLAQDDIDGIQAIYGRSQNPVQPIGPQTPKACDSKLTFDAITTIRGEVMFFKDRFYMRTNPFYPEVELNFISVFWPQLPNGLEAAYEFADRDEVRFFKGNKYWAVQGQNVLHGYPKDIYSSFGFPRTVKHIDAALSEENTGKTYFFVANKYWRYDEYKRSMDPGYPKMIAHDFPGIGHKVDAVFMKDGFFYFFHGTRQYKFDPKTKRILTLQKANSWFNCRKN
Description: Inhibition of human matrix metalloprotease-1.

As usually defined, the IC50 is the midpoint of a concentration-inhibition curve. A higher IC50 goes with weaker potency in that assay. Compound `COc1ccc(S(=O)(=O)N(Cc2cccnc2)[C@@H](C(=O)NO)C(C)C)cc1` [CGS-27023A] displayed an IC50 of 55 nM.

The values are drawn from ChEMBL document CHEMBL1141995, “N-i-Propoxy-N-biphenylsulfonylaminobutylhydroxamic acids as potent and selective inhibitors of MMP-2 and MT1-MMP” (Bioorg Med Chem Lett, 2005).
